# scFv variants of Ab-14 (light chain) against a SARS-CoV-2 spike peptide

Data: MIT Lincoln Laboratory AlphaSeq set, Li et al. 2023, doi:10.1038/s41467-023-39022-2, as distributed in FLAb.

Antigen: PDVDLGDISGINAS, a 14-residue peptide of the SARS-CoV-2 spike HR2 region.

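The starting antibody came from a phage panning campaign against this peptide. The variants were designed computationally from a first round of random CDR variants and then made and measured. Group labels follow the data file (Ctrl: baseline library sampled from a position-specific scoring matrix, with some repeated check sequences; En: ensemble of fine-tuned language models; GP: Gaussian process model; GPLM: also part of the Gaussian process libraries; HC: hill climbing; Gen: genetic algorithm; Gibbs: Gibbs sampling; a sequence that several methods proposed may carry one label only). Affinity was read by AlphaSeq, a pooled yeast mating assay with surface-displayed partners. Binding brings cells together so that they mate, and sequencing counts the barcode pairs among the diploids. Read counts were normalised to the haploid input and turned into Kd by a linear fit to BCL2-family pairs of known affinity, for each replicate. The assay was run in six technical replicates.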

Each scFv is VH, a (GGGGS)3 linker, VL, as in the parent Ab-14, and differs from it in the CDRs of the light chain only.
VH: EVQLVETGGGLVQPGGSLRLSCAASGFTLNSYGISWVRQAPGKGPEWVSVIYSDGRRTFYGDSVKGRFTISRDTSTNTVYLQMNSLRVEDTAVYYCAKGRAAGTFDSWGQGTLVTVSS
VL: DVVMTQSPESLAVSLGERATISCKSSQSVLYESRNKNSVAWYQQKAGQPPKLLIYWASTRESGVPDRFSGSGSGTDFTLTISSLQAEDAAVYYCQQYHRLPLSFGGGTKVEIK

The parent's light chain CDRs are KSSQSVLYESRNKNSVA, WASTRES, QQYHRLPLS; each variant's own CDRs replace them letter for letter. The read-out is the apparent dissociation constant on a log10 scale (nM): the lower, the stronger. Averages over replicates are reported, and they cover detected replicates only. Where no diploid with the target was found in any replicate, the entry reads "nd": below detection, most likely a poor binder, though not proof of it. In the paper, a design with two or fewer of six values counts as a poor binder. A sequence measured in both rounds can read differently, since the two assays cover different ranges. Background: pairings of all light chain designs with three empty control strains gave a value in 4% of cases (median 2.64, 5th percentile 1.59). Values in that range, when seen in few replicates, are hard to tell from nonspecific mating. The control count says in how many pairings with the empty strains this scFv gave a signal.

| # | CDR-L1 | CDR-L2 | CDR-L3 | group | mean log10 Kd (nM) | seen in | signal with controls |
|---|---|---|---|---|---|---|---|
| 1 | KVSEFMRGLMGRKDSIA | DNVTRSN | QQYDRLPLS | En_Gen | 0.91 | 6/6 | 2/18 |
| 2 | KLSQSDLYESRNKNSVA | NASQRES | QQYHRLPLS | GP_Gen | -0.18 | 6/6 | 0/18 |
| 3 | RISFGSYPGSLWHNNIA | GGAQRAE | QQYSRLPLN | En_Gibbs | 1.27 | 6/6 | 1/18 |
| 4 | KISFWSYPGSLWHNNIA | GGAQRAE | QQYSRLPLN | En_Gibbs | 1.60 | 5/6 | 0/18 |
| 5 | KIGHGLTTEMYNRNSVA | QTETRVD | QHYHRLPLS | En_HC | 2.68 | 2/6 | 1/18 |
| 6 | KFSQSVLYESRNKNSVA | WASNRES | QQYHRLPLS | Ctrl | 1.43 | 6/6 | 1/18 |
| 7 | KSSQSVLMESRNKNSVA | WASVRES | QQYHYCPLS | Ctrl | 1.82 | 1/6 | 0/18 |
| 8 | KFPQSVGYQSRNKNSVA | DASTRLS | QQYHRLPLS | GP_Gibbs | -0.45 | 6/6 | 2/18 |
| 9 | NSSGPGMFESRNKNSVA | HASTREE | QQYDRLPLS | En_HC | 1.12 | 6/6 | 1/18 |
| 10 | KLLQSVLYESRDKNSVA | NASTRED | QQYHRLPLS | GP_HC | 0.11 | 6/6 | 0/18 |
| 11 | KMEQGVLYESRNKNSVA | HASVRES | QQYHRLPLS | GP_HC | 0.20 | 6/6 | 0/18 |
| 12 | DSSQSVLYESRNKNSVA | TASTREI | QQYHRLPLS | Ctrl | 2.05 | 2/6 | 0/18 |
| 13 | MMSMGYLGGMRAKNNVA | QESTREE | QQYHRLPLI | En_HC | 0.77 | 6/6 | 0/18 |
| 14 | KSSQSVLYESRNKNSVA | SASTREW | QQYHDLPLS | Ctrl | 2.43 | 1/6 | 0/18 |
| 15 | KVQNHSSGTLNDKNAVA | EDKNAAV | QQYVRLPLI | En_Gibbs | 2.39 | 4/6 | 1/18 |
| 16 | KFDDSMVEWDANQSQVA | DHAEAQH | QQYDRLPLS | En_Gibbs | nd | 0/6 | 0/18 |
| 17 | KFSQSVLYESRNKNSVA | NASLRES | QQYHRLPLS | GP_HC | 0.55 | 6/6 | 0/18 |
| 18 | MLLQSTMYGERNRNSVA | HASTREN | QQYHRLPLI | En_HC | 0.92 | 6/6 | 1/18 |
| 19 | RLTQQMAGFNRHANAIA | SGAERQW | QQYARLPIS | En_Gibbs | 1.11 | 6/6 | 0/18 |
| 20 | KGMGSMLYESRNKNSVA | NASQRES | QQYHRLPLS | GP_Gibbs | -0.20 | 6/6 | 0/18 |
| 21 | KSSQSVPYESRNKNSVA | WAQTRES | QQYHHLPLH | Ctrl | nd | 0/6 | 0/18 |
| 22 | KLSMSVDYMSATHSSVA | QTTTREE | QQYHRLPLS | En_HC | 0.43 | 6/6 | 1/18 |
| 23 | KSSWSMLYESRNKNSVA | DASTRES | QQYHRLPLS | GP_HC | 0.31 | 6/6 | 0/18 |
| 24 | KLQQSWLYESRNKNSVA | NASQRES | QDYHRLPLS | GP_Gen | -0.19 | 6/6 | 1/18 |
| 25 | HMSMLTLQGMRMRNSVA | QMTTREN | QQYDRLPLS | En_Gen | 1.46 | 6/6 | 0/18 |
| 26 | KMSQSVLYFSRNKNSVA | WASTRES | QQYHRLPLS | Ctrl | 0.59 | 5/6 | 0/18 |
| 27 | FMGGTKTMQSNEIGNIA | DMNERFA | QQYFQLPLS | En_Gibbs | 0.47 | 6/6 | 0/18 |
| 28 | HMSDSIEKMASHARNIA | DETTTAM | QQYYRLPLS | En_Gibbs | 0.10 | 6/6 | 0/18 |
| 29 | KISWNMGETQRNKNSVA | EVSTVPS | QQYWRLPLS | En_HC | 0.51 | 6/6 | 2/18 |
| 30 | KLPQSVPYESRNKNSVA | EASTRES | QQYHRLPLS | GP_Gen | -0.28 | 6/6 | 1/18 |
| 31 | KYEVSVLYESRNHNSVA | RASTRES | QQYHRLPLS | Ctrl | 1.22 | 6/6 | 2/18 |
| 32 | KISQMSLYESRNKNSVA | WAQTRES | QQYHRLPLS | Ctrl | 1.15 | 6/6 | 0/18 |
| 33 | KLSGSQLYQSRNSNAVA | NASTRMS | QQYHRLPLS | GP_Gibbs | 0.46 | 6/6 | 0/18 |
| 34 | KLSQSWDYESRNKNSVA | NASQRES | QQYHRLPLS | GP_Gen | 0.09 | 6/6 | 0/18 |
| 35 | KVSQSQLYESGTKNSVA | NASSRES | QQYHRLPLS | GP_HC | 0.39 | 6/6 | 2/18 |
| 36 | IVSQLMLWGYHASNSIA | EAQTRLN | QQYDRLPLF | En_Gen | 1.94 | 5/6 | 2/18 |
| 37 | KSQQSVLDEERNDNSVA | WASHRLS | QQYHRLPLS | GP_Gibbs | 1.07 | 6/6 | 0/18 |
| 38 | KISMLYNYASTNKNSIA | EMTTREA | QHYHRLPLS | En_HC | 1.26 | 6/6 | 0/18 |
| 39 | KFSQMVLTGLYVSNSVA | QMSTRVN | QQYHRLPLM | En_HC | 0.76 | 6/6 | 0/18 |
| 40 | KSSQSVLGEQRNKNSVA | DASTRES | QQYHRLPLS | GP_HC | 0.13 | 6/6 | 0/18 |
| 41 | TLGQVTMQLSVNYNSVA | DANTSED | QQYDRLPLS | En_HC | nd | 0/6 | 0/18 |
| 42 | KSSISYLEESRNKNSVA | EASTREV | QQYHRLPLS | GP_HC | -0.11 | 6/6 | 0/18 |
| 43 | KNSQSVLFESRNKNSVA | DASTRES | QQYHRLPLS | GP_HC | 0.09 | 6/6 | 4/18 |
| 44 | AAQQSELYEDRNQNSVA | NASQRLS | QQYHRLPLS | GP_Gibbs | 0.41 | 6/6 | 0/18 |
| 45 | KSQQSVLYESRNKNSVA | DGSTLES | SQAHRLPLS | Ctrl | 1.03 | 6/6 | 1/18 |
| 46 | TIGPMLMTESRNKNNVA | GMQTRER | QQYHRLPLS | En_HC | -0.05 | 6/6 | 0/18 |
| 47 | KLQQSWEYESRNKNSVA | NASQRES | QQYHRLPLS | GP_Gen | -0.36 | 6/6 | 1/18 |
| 48 | KIDMSLNYESVALNSIA | EEVMHTA | QQYDRLPLF | En_Gibbs | 2.28 | 1/6 | 0/18 |
| 49 | KSSISYLYESHNKNSVA | AASMRES | QQYHRLPLS | GP_HC | 0.35 | 6/6 | 2/18 |
| 50 | HITYGMMVLGRHSKSIA | QAETRAK | QQYDRLPLA | En_Gen | 1.21 | 6/6 | 0/18 |
| 51 | KLSMMYRYETEEKNSIA | ELVTRMS | QQYHRLPLS | En_HC | 1.35 | 3/6 | 1/18 |
| 52 | KSSGSVKFESRNKNSVA | DASTRES | QQYHRLPLS | GP_HC | 0.36 | 6/6 | 0/18 |
| 53 | NLVGRVPDMYDGRNAIA | DMHAKAT | QQYFRLPLA | En_Gibbs | 0.46 | 6/6 | 1/18 |
| 54 | KISQMVKVGATHNNSIA | EEQTRAK | QQYHRLPLA | En_Gen | 1.21 | 6/6 | 2/18 |
| 55 | KLVNFMNRGTHHTSNIA | DAQNRCD | QQYARLPLD | En_Gen | 1.16 | 6/6 | 3/18 |
| 56 | KLSVSWYFESIEKNSVA | ERSTRES | QDYNRLPLS | En_HC | 1.48 | 6/6 | 0/18 |
| 57 | KASQSVLYESRNKNSVA | WASTRES | QQYHRLPNS | Ctrl | 3.50 | 1/6 | 1/18 |
| 58 | QIALAYEEVGHQDNSIA | DETVKPA | QQYLRLPLH | En_Gibbs | 2.22 | 3/6 | 0/18 |
| 59 | KLRQSWNYESRNKNSVA | NASTRES | QIYHRLPLS | GP_HC | 0.72 | 6/6 | 1/18 |
| 60 | MISQSFLIGMKAKNSVA | QTSTRES | QQYDRLPLM | En_HC | -0.16 | 6/6 | 0/18 |
| 61 | KSSQSVLYTSRNKNSVA | WASTRES | QQYHRLPLS | Ctrl | 2.54 | 4/6 | 1/18 |
| 62 | KSSQSVLFGSRNKNSVA | DASTRES | QQYHRLPLS | GPLM_HC | 0.15 | 6/6 | 3/18 |
| 63 | KFSQSELYESRNKNSVA | NASKRES | QQYHRLPLS | GP_Gen | -0.04 | 6/6 | 0/18 |

The first 3 variants above that were never detected:

CDR-L1	CDR-L2	CDR-L3	group	mean log10 Kd (nM)	seen in	signal with controls
KFDDSMVEWDANQSQVA	DHAEAQH	QQYDRLPLS	En_Gibbs	nd	0/6	0/18
KSSQSVPYESRNKNSVA	WAQTRES	QQYHHLPLH	Ctrl	nd	0/6	0/18
TLGQVTMQLSVNYNSVA	DANTSED	QQYDRLPLS	En_HC	nd	0/6	0/18